Values of other authors in patent EP4115885A1 (Charité - Universitätsmedizin Berlin, priority 2021, dated 2023).

By UniProt entry, the sequences of proteins in these tests, tags left out. Where a name states a change or a piece, a line headed by the entry shows the natural chain unless it says otherwise.
UniProt P32246: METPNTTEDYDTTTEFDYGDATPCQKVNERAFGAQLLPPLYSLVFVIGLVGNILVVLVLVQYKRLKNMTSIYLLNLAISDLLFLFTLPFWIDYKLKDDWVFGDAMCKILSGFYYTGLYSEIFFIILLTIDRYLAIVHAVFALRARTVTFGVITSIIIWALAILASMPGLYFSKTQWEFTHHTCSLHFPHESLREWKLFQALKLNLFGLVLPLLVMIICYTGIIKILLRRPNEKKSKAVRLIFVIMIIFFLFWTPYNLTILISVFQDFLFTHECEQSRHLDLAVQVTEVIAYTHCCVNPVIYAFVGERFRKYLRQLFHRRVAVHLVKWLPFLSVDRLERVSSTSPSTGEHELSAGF

Legend:
[1] = vital organ systems including pulmonary function; cited from earlier work
[2] = system: MIP1-α-induced CD11b expression in peripheral blood monocytes; conditions: healthy subjects, single doses; returned to baseline after discontinuation; cited from earlier work
[3] = human, in vivo, cited from earlier work
[4] = target: CCR1 (Homo sapiens, UniProt P32246); conditions: cited from earlier work
[5] = system: rat experimental model of autoimmune encephalitis (EAE); conditions: in vivo; cited from earlier work
[6] = system: rabbit renal transplant rejection model; conditions: in vivo; cited from earlier work
[7] = system: murine models of lung injury; conditions: mouse, in vivo; cited from earlier work
[8] = system: human or animal CCR1; conditions: cited from earlier work
[9] = system: CCR5, CCR2, CXCR1, CXCR2, or CXCR4; conditions: cited from earlier work
[10] = system: mouse renal fibrosis model; conditions: in vivo; cited from earlier work

## C[C@@H]1CN(Cc2ccc(F)cc2)CCN1C(=O)COc1ccc(Cl)cc1NC(N)=O [BAY 86-5277, N-[5-chloro-2-[2-[(2R)-4-[(4-fluorophenyl)methyl]-2-methyl-1-piperazinyl]-2-oxoethoxy]phenyl]-urea]
[1]
  overall results of safety pharmacology studies: did not reveal effects that are expected to have an impact to the health of humans
[2]
  blockade of ex vivo MIP1-α-induced CD11b expression: dose dependent blockade
[3]; po
  proof-of-concept or evidence for clinical efficacy: could not demonstrate proof-of-concept or evidence for clinical efficacy
[3]
  gastrointestinal disorders such as nausea, vomiting and diarrhoea (most common adverse events): 5-20 % of patients
[4]
  leukocyte migration specifically related to the CCR1 receptor: inhibiting leukocyte migration
[5]
  activity in efficacy model: demonstrated activity
[6]
  activity in efficacy model: demonstrated activity
[7]
  effect of blockade of CCR1: beneficial
[8]
  binding affinity: high affinity
  competition with 125l-labelled MIP-1α and RANTES: effectively compete
[9]
  directed migration of cells in response to the ligands of CCR5, CCR2, CXCR1, CXCR2, or CXCR4: did not affect
[10]
  activity in efficacy model: demonstrated activity
